Literature values in PMC12067741, “Inhibition of SOD1 trimerization is a novel drug target for ALS disease” (Translational Neurodegeneration, 2025).

Tested on: ALS
Conditions: cited from earlier work

Nc1nc2ccc(OC(F)(F)F)cc2s1 [riluzole]
efficacy on survival rate: no efficacy on survival rate
